Publication PMC4858680, “A platinum-based hybrid drug design approach to circumvent acquired resistance to molecular targeted tyrosine kinase inhibitors” (Scientific Reports, 2016)

The chains behind the UniProt entries cited, without tags or fusion partners. Residues count along the entry.
UniProt P23458, 854-1154 limits assumed: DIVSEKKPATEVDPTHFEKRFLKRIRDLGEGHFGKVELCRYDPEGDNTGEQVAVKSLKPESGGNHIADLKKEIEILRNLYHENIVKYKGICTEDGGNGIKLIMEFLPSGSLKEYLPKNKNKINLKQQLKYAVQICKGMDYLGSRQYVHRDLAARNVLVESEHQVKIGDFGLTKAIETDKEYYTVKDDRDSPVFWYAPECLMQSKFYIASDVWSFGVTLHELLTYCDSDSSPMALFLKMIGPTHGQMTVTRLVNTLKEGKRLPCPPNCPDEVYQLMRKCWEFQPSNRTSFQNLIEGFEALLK
UniProt P23458, 561-860 limits assumed: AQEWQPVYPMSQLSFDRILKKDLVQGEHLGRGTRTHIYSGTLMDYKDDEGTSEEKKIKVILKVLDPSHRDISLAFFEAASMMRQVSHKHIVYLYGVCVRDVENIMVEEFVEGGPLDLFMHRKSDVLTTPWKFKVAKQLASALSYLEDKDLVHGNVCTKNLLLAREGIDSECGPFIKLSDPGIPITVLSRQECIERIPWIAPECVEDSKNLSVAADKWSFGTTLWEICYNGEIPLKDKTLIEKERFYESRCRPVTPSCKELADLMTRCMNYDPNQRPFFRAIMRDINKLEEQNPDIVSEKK

How the values were obtained:
[1] = biological target: T1, JAK1(JH1domain-catalytic) (Homo sapiens, UniProt P23458); conditions: 10 μM
[2] = biological target: T2, JAK1(JH2domain-pseudokinase) (Homo sapiens, UniProt P23458); conditions: 10 μM
[3] = biological target: T3, EGFR(E746-A750del) (Homo sapiens, UniProt P00533, DEL746-750); conditions: 10 μM
[4] = biological target: T4, EGFR(L747-E749del,A750P) (Homo sapiens, UniProt P00533, A750P/DEL747-749); conditions: 10 μM
[5] = biological target: T5, EGFR(L747-S752del,P753S) (Homo sapiens, UniProt P00533, DEL747-752/P753S); conditions: 10 μM
[6] = biological target: T6, EGFR(S752-I759del) (Homo sapiens, UniProt P00533, DEL752-759); conditions: 10 μM
[7] = biological target: FLT3(D835H) (Homo sapiens, UniProt P36888, D835H); experiment: biochemical; conditions: read-out: Percent control
[8] = biological target: T1, JAK1(JH1domain-catalytic); experiment: biochemical; conditions: read-out: Percent control
[9] = biological target: T2, JAK1(JH2domain-pseudokinase); experiment: biochemical; conditions: read-out: Percent control
[10] = biological target: T3, EGFR(E746-A750del); experiment: biochemical; conditions: read-out: Percent control
[11] = biological target: T4, EGFR(L747-E749del,A750P); experiment: biochemical; conditions: read-out: Percent control
[12] = biological target: T5, EGFR(L747-S752del,P753S); experiment: biochemical; conditions: read-out: Percent control
[13] = biological target: T6, EGFR(S752-I759del); experiment: biochemical; conditions: read-out: Percent control

Compound	Percent control [1]	Percent control [2]	remaining activity at 10 µM [8]	remaining activity at 10 µM [9]	further results
COc1cc2c(Nc3ccc(Br)cc3F)[n+]([Pt-2]3([Cl])[NH2+]C4CCCCC4[NH2+]3)cnc2cc1OCC1CCN(C)CC1 (stereo not drawn) [3b, oxaliplatin-vandetanib]	83%	85%	–	–	–
Cc1ccc(NC(=O)c2ccc(CN3CCN(C)CC3)cc2)cc1Nc1nccc(-c2cccnc2)[n+]1[Pt-2]1([Cl])[NH2+]C2CCCCC2[NH2+]1 (stereo not drawn) [1b, oxaliplatin-imatinib]	80%	100%	–	–	Percent control [3]: 75%; Percent control [4]: 67%; Percent control [5]: 81%; Percent control [6]: 46%
C#Cc1cccc(Nc2ncnc3cc(OCCOC)c(OCCOC)cc23)c1 [Erlotinib]	–	–	100%	100%	remaining activity at 10 µM [7]: 3.4%
C#Cc1cccc(Nc2c3cc(OCCOC)c(OCCOC)cc3nc[n+]2[Pt@SP2-2]([NH3+])([NH3+])[Cl])c1 [2a, cisplatin-erlotinib]	93%	100%	–	–	–
Cc1ccc(NC(=O)c2ccc(CN3CCN(C)CC3)cc2)cc1Nc1nccc(-c2cccnc2)n1 [Imatinib, reference compound]	–	–	100%	100%	remaining activity at 10 µM [10]: 100%; remaining activity at 10 µM [11]: 43.2%; remaining activity at 10 µM [12]: 100%; remaining activity at 10 µM [13]: 100%
COc1cc2c(Nc3ccc(Br)cc3F)ncnc2cc1OCC1CCN(C)CC1 [Vandetanib, reference compound]	–	–	100%	100%	–
